Like-named read-outs stand apart in the source and are kept apart here.
Assays:
[1] = 25° C., 20 mcg/mL, tromethamine 10 mg/mL, 5.4 mg/mL sodium chloride in water
Method: (§1) Separate samples containing 20 mcg/mL levothyroxine sodium, 10 mg/mL tromethamine, 5.4 mg/mL sodium chloride, and sodium iodide at a concentration of 280 mcg/mL, 140 mcg/mL, or 6 mcg/mL in water were adjusted to various pH levels. 5 mL of each sample was filled into 10 cc flint molded vials, and the vials were stoppered with 20 mm stoppers under nitrogen.
The samples also were stored at temperatures of 25° C. or 40° C. for 2M or 4M prior to analysis by HPLC.
The HPLC conditions were as follows: • Column: Phenomenex Kinetex 2.6 μm C18, 4.6×150 mm HPLC column • Mobile Phase A: 0.05 M Sulfamic Acid, pH 2.0 • Mobile Phase B: Acetonitrile • Diluent: 10% Mobile Phase A in Methanol: Acetonitrile: Mobile Phase A (1000 mL: 300 mL: 700 mL) • Column temperature: 27° C. • Flow rate: 1.2 mL/min • Injection volume: 50 μL • Autosampler temperature: 25° C. • Detection: UV at 225 nm • Separation mode: Gradient Gradient Program: […]

[2] = 4 W, 20 mcg/mL, tromethamine 10 mg/mL, 5.4 mg/mL sodium chloride in water
Method: as §1
The HPLC conditions were as follows: • Column: ACE Excel 3 C18-PFP, 4.6×150 mm HPLC column • Mobile Phase A: Sodium heptanesulfonate/Acetonitrile/Water/Methanol/H3PO4 (4.0 g/800 mL/1600 mL/1600 mL/4.0 mL) • Mobile Phase B: Sodium heptanesulfonate/Acetonitrile/Water/Methanol/H3PO4 (4.0 g/2000 mL/200 mL/1800 mL/4.0 mL) • Diluent: 0.01 N NaOH • Column temperature: 25° C. • Flow rate: 1.5 mL/min • Injection volume: 80 μL • Autosampler temperature: 5° C. • Detection: UV at 225 nm • Separation mode: Gradient Gradient Program: […]

[3] = 20 mcg/mL, tromethamine 10 mg/mL, normal saline
Method: Separate samples containing levothyroxine sodium at a concentration of 20 mcg/mL, tromethamine at a concentration of 10 mg/mL in normal saline (0.9% NaCl in water) were adjusted to various pH levels. One sample additionally contained hydroxypropyl (HP) β-cyclodextrin at a concentration of 10 mg/mL. 5 mL of each sample was filled into 10 cc amber tubing vials, and the vials were stoppered with 20 mm stoppers under nitrogen. The samples were stored at temperatures of 25° C., 40° C. and 55° C. The samples stored at 55° C. were analyzed by HPLC at 1 and 4 weeks (W) of storage. The samples stored at 40° C. were analyzed by HPLC at 4 W and 3 months (M) of storage. The samples stored at 25° C. were analyzed by HPLC at 3M of storage.
The HPLC conditions were as follows: • Column: Waters […]™ C8 (5 μm, 4.6×150 mm) HPLC column • Mobile Phase A: Sodium heptanesulfonate/Acetonitrile/Water/Methanol/H3PO4 (4.023 g/800 mL/1600 mL/1600 mL/4 mL) • Mobile Phase B: Sodium heptanesulfonate/Acetonitrile/Water/Methanol/H3PO4 (2.013 g/1000 mL/100 mL/900 mL/2 mL) • Diluent: 0.01 N NaOH • Column temperature: 25° C. • Flow rate: 1.5 mL/min • Injection volume: 40-200 μL • Autosampler temperature: 5° C. • Detection: UV at 225 nm • Separation mode: Gradient Gradient Program: […]
The results for liothyronine, largest unknown impurity, and total impurities as determined by peak area percent are set forth in Table 1.

## N[C@@H](Cc1cc(I)c(Oc2cc(I)c(O)c(I)c2)c(I)c1)C(=O)[O-].[Na+] [Levothyroxine Na, 4-(4-hydroxy-3,5-diiodophenoxy)-3,5-diiodo-L-phenylalanine sodium]
[1]; 2 M, NaI 6 mcg/mL, pH 10.5
  % Liothyronine: 0.26%
[1]; 2 M, NaI 140 mcg/mL, pH 10
  % Liothyronine: 0.25%
[1]; 2 M, NaI 280 mcg/mL, pH 9.5
  % Liothyronine: 0.28%
[1]; 4 M, NaI 6 mcg/mL, pH 10.5
  % Liothyronine: 0.25%
[1]; 4 M, NaI 140 mcg/mL, pH 10
  % Liothyronine: 0.28%
[1]; 4 M, NaI 140 mcg/mL, pH 10.5
  % Liothyronine: 0.26%
[1]; 4 M, NaI 280 mcg/mL, pH 10
  % Liothyronine: 0.28%
[1]; 4 M, NaI 280 mcg/mL, pH 10.5
  % Liothyronine: 0.25%
[2]; 25° C., NaI 6 mcg/mL, pH 10.5
  % Liothyronine: 0.25%
[2]; 25° C., NaI 140 mcg/mL, pH 9.5
  % Liothyronine: 0.28%
[2]; 25° C., NaI 140 mcg/mL, pH 10
  % Liothyronine: 0.27%
[2]; 25° C., NaI 140 mcg/mL, pH 10.5
  % Liothyronine: 0.26%
[2]; 25° C., NaI 280 mcg/mL, pH 9.5
  % Liothyronine: 0.28%
[2]; 25° C., NaI 280 mcg/mL, pH 10
  % Liothyronine: 0.26%
[2]; 25° C., NaI 280 mcg/mL, pH 10.5
  % Liothyronine: 0.26%
[2]; 55° C., NaI 6 mcg/mL, pH 10.5
  % Liothyronine: 0.87%
[2]; 55° C., NaI 140 mcg/mL, pH 9.5
  % Liothyronine: 1.74%
[2]; 55° C., NaI 140 mcg/mL, pH 10
  % Liothyronine: 1.06%
[2]; 55° C., NaI 140 mcg/mL, pH 10.5
  % Liothyronine: 0.74%
[2]; 55° C., NaI 280 mcg/mL, pH 10
  % Liothyronine: 1.06%
[2]; 55° C., NaI 280 mcg/mL, pH 10.5
  % Liothyronine: 0.71%
[3]; 40° C., 3 M, pH 9.5
  % Liothyronine: 1.56%
[3]; 40° C., 3 M, pH 10
  % Liothyronine: 0.87%
[3]; 55° C., 4 W, pH 9.5
  % Liothyronine: 1.7%

Reference: US12636270B2, “Levothyroxine liquid formulations” (Fresenius Kabi USA, LLC, priority 2016, dated 2026)
